Columns and labels:
[1] = biological target: rh-AChE (Homo sapiens, UniProt P22303); experiment: biochemical
[2] = biological target: rh-BuChE (Homo sapiens, UniProt P06276); experiment: IC50 rh-BuChE; format: biochemical

Sequences of proteins named here, by UniProt entry; tags and fusion partners are left off. Residues count along the entry.
UniProt P22303, 32-614: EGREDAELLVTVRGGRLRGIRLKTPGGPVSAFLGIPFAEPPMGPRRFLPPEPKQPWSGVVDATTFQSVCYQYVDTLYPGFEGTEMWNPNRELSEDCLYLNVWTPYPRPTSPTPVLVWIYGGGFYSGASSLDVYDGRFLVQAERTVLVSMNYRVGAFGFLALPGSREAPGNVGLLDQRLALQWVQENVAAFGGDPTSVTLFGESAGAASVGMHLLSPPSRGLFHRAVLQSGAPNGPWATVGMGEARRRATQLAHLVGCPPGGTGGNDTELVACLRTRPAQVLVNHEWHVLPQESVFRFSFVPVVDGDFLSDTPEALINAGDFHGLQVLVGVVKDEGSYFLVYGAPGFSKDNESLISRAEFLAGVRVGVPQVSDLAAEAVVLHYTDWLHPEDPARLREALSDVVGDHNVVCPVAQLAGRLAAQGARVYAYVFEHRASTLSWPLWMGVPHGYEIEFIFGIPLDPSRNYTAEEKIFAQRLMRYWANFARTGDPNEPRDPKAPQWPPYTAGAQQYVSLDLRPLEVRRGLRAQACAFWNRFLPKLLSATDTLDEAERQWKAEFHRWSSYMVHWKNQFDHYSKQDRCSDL
UniProt P06276, 29-602: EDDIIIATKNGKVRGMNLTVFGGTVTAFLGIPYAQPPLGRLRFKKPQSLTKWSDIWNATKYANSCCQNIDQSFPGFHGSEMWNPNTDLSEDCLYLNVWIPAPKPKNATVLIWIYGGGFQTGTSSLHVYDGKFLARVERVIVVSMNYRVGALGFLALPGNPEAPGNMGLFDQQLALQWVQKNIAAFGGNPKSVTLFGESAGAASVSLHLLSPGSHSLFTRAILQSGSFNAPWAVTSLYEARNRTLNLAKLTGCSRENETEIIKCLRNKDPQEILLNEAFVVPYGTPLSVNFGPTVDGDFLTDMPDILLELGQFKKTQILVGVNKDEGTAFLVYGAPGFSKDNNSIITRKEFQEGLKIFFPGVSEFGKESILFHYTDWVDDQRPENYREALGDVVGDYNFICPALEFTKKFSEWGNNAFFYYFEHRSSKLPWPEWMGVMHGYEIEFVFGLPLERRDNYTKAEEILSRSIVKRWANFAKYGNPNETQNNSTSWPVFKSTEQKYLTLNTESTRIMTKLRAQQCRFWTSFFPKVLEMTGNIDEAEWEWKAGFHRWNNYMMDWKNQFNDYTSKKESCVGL

SMILES: NCCC1=CC2Cc3nc4cc(Cl)ccc4c(N)c3C(C1)C2 (centres unmarked) [HUP 24, 9-(2-Aminoethyl)-3-chloro-6,7,10,11-tetrahydro-7,11-methanocycloocta[b]quinolin-12-amine Ditrifluoroacetic Acid]
- IC50 [1]: 244 ± 62 nM
- IC50 [2]: 991 nM
